In ChEMBL document CHEMBL3822453 (J Med Chem, 2016) one finds IC50 and Imax data, which are given here for 25 compounds.

The structures appear in SMILES notation.

Broadly, the IC50 is the point on the concentration scale where inhibition reaches its midpoint.

The first test has as its target T1, DNA repair protein RAD51 homolog 1 (Homo sapiens, UniProt Q06609).
T1 sequence (Q06609 whole entry): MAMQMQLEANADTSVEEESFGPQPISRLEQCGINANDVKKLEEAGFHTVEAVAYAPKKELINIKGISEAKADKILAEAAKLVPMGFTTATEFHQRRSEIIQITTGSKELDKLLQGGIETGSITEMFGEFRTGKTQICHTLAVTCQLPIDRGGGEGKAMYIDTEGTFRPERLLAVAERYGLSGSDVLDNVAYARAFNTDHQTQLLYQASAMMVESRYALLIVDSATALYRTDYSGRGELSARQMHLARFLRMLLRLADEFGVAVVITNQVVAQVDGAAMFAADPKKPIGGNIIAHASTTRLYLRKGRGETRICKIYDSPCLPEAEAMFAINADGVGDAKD
Put plainly: Inhibition of human N-terminal 6-histidine/Avi-tagged recombinant RAD51 expressed in Escherichia coli BL21(DE3) assessed as D-loop formation using 5'-32P-labeled 90-mer ssDNA as substrate preincubated for 10 mins followed by substrate addition with subsequent incubation with substrate for 5 mins measured after 20 mins in presence of supercoiled pRS306 dsDNA by agarose gel electrophoresis.
Conditions: not given
On to `CCNc1ccc(-c2nc3ccccc3n3cccc23)cc1`, for which the half-inhibitory concentration (IC50) came to 11.1 µM.

The target of a further test is T1, DNA repair protein RAD51 homolog 1. Put plainly: Inhibition of Escherichia coli BL21(DE3) expressing human N-terminal 6-histidine/Avi-tagged RAD51 binding to 5'-Alexa488-oligo-dT45 ssDNA preincubated for 40 mins followed by substrate addition measured after 40 mins by fluorescence polarization based microplate method.
Conditions: not given
Put shortly: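 Human RAD51 preincubated with compound in DMSO at 37 °C for 40 min, then 5'-Alexa488-oligo-dT45 added and incubated another 40 min at 37 °C. Buffer: 20 mM HEPES pH 7.5, 2 mM ATP, 10 mM MgCl2, 0.1 mM TCEP. Final: 0.2 µM RAD51, 2.22 nM ssDNA, 30 mM NaCl, 4% DMSO. Fluorescence polarization read at 485/535 nm. IC50 from least-squares dose–response fits with standard error.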
On the technique in general: Fluorescence polarisation rises when a labelled molecule tumbles more slowly, as on binding a larger partner.
As to `Oc1ccc2c(c1)nc(-c1cccnc1)c1cccn12`, the IC50 is more than 100 µM.

The next test deals with T2, DNA repair protein RAD51 homolog 1 (Homo sapiens) (UniProt Q06609).
T2 sequence (whole entry): T1 sequence (Q06609 whole entry)
Particulars: 5 to 100 uM.
For `c1ccc2c(c1)nc(-c1ccncc1)c1cccn12`, the Imax came to 63%.
The same measure, in the same setting: next, `FC(F)(F)Oc1ccc(-c2nc3ccccc3n3cccc23)cc1`: 22%; `Nc1ccc(-c2nc3cc(O)ccc3n3cccc23)cc1`: 100%; `Nc1ccc(-c2nc3ccccc3n3cccc23)cc1`: 100%.
On to `O=[N+]([O-])c1ccc(-c2nc3ccccc3n3cccc23)cc1`, for which the Imax was 2%.
In turn, `CN(C)c1ccc(-c2nc3cc(F)ccc3n3cccc23)cc1` returned an Imax of 31%.
For `Nc1ccc(-c2nc3cc(OCCF)ccc3n3cccc23)cc1`, the Imax stood at 98%.
For the compound `CN(C)c1ccc(-c2nc3cc(F)c(F)cc3n3cccc23)cc1`, the Imax was determined as 19%.
Turning to `c1cncc(-c2nc3ccccc3n3cccc23)c1`, the Imax came out at 70%.
The same measure, in the same setting: the value for `Nc1ccc(-c2nc3cc(F)ccc3n3cccc23)cc1` was 95%; that for `O=[N+]([O-])c1ccc(-c2nc3cc(O)ccc3n3cccc23)cc1` was 13%; that for `O=[N+]([O-])c1cccc(-c2nc3ccccc3n3cccc23)c1` was 20%.
On to `CN(C)c1ccc(-c2nc3ccccc3n3cccc23)cc1`, for which the Imax came out at 61%.
Still for that read-out and setting: the value for `COc1ccc2c(c1)nc(-c1ccc([N+](=O)[O-])cc1)c1cccn12` was 17%; that for `CCCOc1ccc2c(c1)nc(-c1ccc(N)cc1)c1cccn12` was 75%; that for `Oc1ccc(-c2nc3cc(O)ccc3n3cccc23)cc1` was 97%.
Same read-out and setting: next, `c1ccc2c(c1)nc(-c1ccc(N3CCCC3)cc1)c1cccn12`: 8%.
Same read-out and setting: the value for `C1=C(c2nc3ccccc3n3cccc23)CCCC1` was 5%; that for `Nc1cccc(-c2nc3ccccc3n3cccc23)c1` was 79%.
On to `Nc1ccc(-c2nc3cc(F)c(F)cc3n3cccc23)cc1`, for which the Imax amounted to 59%.
The same measure, in the same setting: the value for `CN(C)c1ccc(-c2nc3cc(OC(C)(C)C(N)=O)ccc3n3cccc23)cc1` was 38%; that for `Oc1ccc(-c2nc3ccccc3n3cccc23)cc1` was 38%.
On the same count and under the same terms, next, `c1ccc2c(-c3nc4ccccc4n4cccc34)cccc2c1`: 42%.

For another test, the target named is T1, DNA repair protein RAD51 homolog 1. The test is described as follows: Inhibition of RAD51-mediated homologous recombination in human HEK293-DR-GFP cells transfected with pCBASce expressing I-Sce-I after 24 hrs following transfection by 7-aminoactinomycin D staining based flow cytometry.
Conditions: not given
As for `CCNc1ccc(-c2nc3ccccc3n3cccc23)cc1`, the IC50 was found to be 3 µM.
